The conditions of series [1]: well-stirred model, from rat microsomal CLint.
A short description of a further series: in vitro. As to conditions: rat, microsomes, pH 7.4.
For series [2] the following is noted: rat, PO 10 mg/kg, […] post dose.

As usually defined, the CLint scaled is the capacity of the preparation to metabolise the compound, expressed as a volume cleared per time.

Molecules are shown by their SMILES.

Regarding `C[C@@H](CN1CCC(n2c(=O)[nH]c3cc(Br)ccc32)CC1)NC(=O)[C@H]1C[C@@H]1c1ccccc1` [compound 14], the “predicted hepatic clearance (CLhep)” value in series [1] is on record as 63 mL/min/kg. The molecule further returned a CLint scaled at 1 µM in the series “in vitro” of 660 mL/min/kg. Besides, in series [2], the Brain result is reported as “below quantitation”.

(Values after paper PMC3179181 (Journal of medicinal chemistry, 2010).)
